TDP1 cell noCPT: qHTS for Inhibitors of human tyrosyl-DNA phosphodiesterase 1 (TDP1): qHTS in cells in absence of CPT. DT40 Tdp1-/- hTDP1 cells, no CPT, ATP luminescence, 48 h. Potency, µM (highest dose often 46.2 µM), for inactives: top-dose activity change, negative = growth inhibition, hits mostly inhibitors. hit rate 15% among 420,000; further: potency means the concentration at half of the fitted maximal effect; on the % scale 0 is the no-effect control and ±100 the full control effect; nearly all actives have a fitted effect of over 55% in size
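Growth of hTDP1-complemented DT40 Tdp1-knockout cells is measured by ATP luminescence after at least 48 hr compound exposure at 37 °C, with DMSO substituting for the 20 nM CPT used in the parallel screen.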
miR-21 reporter: raises the signal of a miR-21 reporter | HeLa miR-21 FLuc reporter, luciferase, 48 h | Potency, µM (highest dose often 38.3 µM), for inactives: at the highest dose reporter change, positive = more light | 340,000 tested, under 10 active | AID 2288; active = well fitted rising curve with a large enough effect; inconclusive = small, poorly fitted or top-dose-only effect; inactive = no such curve, though single readings can be large or run the other way;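 also: % of control where 0% means no effect; miR-21 action dims this reporter so a rising signal means less miR-21 action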
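HeLa cells stably expressing CMV-driven firefly luciferase with a downstream miR-21 binding sequence, endogenously expressing miR-21, were treated with titrations (up to about 40uM final) for 48 hours at 37 degree Celsius. Luciferase luminescence was read after lysis.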
uPA generation: cell surface uPA generation inhibition; Potency, µM (series often up to 38.3 µM), inactives show at the highest dose activity change, negative = inhibition, actives largely listed as inhibitors; hit rate 0.31% among 330,000; cell surface uPA generation assay, qHTS; active means well fitted inhibition curve with a large enough effect; inconclusive means small, poorly fitted or top-dose-only effect; inactive means no such curve, though single readings can be large or run the other way; tested in mouse RAW 264.7 cells; further: potency means the concentration at half of the fitted maximal effect; on the % scale 0 is the no-effect control and ±100 the full control effect; nearly all actives have a fitted effect of over 55% in size
TDP1 inh: blocks human tyrosyl-DNA phosphodiesterase 1. Q9NUW8. recombinant TDP1, AlphaScreen DNA substrate cleavage. Potency, µM (highest dose often 130 µM), for the others: at the highest dose activity change, negative = inhibition, actives largely listed as inhibitors. hit rate 0.28% among 350,000; further: potency means the concentration at half of the fitted maximal effect; on the % scale 0 is the no-effect control and ±100 the full control effect; nearly all actives have a fitted effect of over 40% in size
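Signal: AlphaScreen proximity between streptavidin donor and anti-FITC acceptor beads on intact substrate. Reaction: Tdp1 1 nM, substrate 15 nM final, 5 min RT after 15 min compound preincubation.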
TDP1 cell CPT: growth inhibition of DT40 Tdp1-/-;hTDP1 cells with camptothecin (screen for TDP1 inhibitors) | hit rate 12% among 420,000 | Potency, µM (top dose mostly 46.2 µM), without a hit: top-dose activity change, negative = growth inhibition, usual class: inhibitors | chicken DT40 Tdp1-/-;hTDP1 cells + 20 nM CPT, ATP luminescence, 48 h; further: potency means the concentration at half of the fitted maximal effect; on the % scale 0 is the no-effect control and ±100 the full control effect; nearly all actives have a fitted effect of over 55% in size
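Cell growth measured by CellTiter-Glo luminescence after a minimum 48 h, 37 C compound exposure with 20 nM CPT in Tdp1-knockout DT40 cells stably expressing hTDP1, seeded 400/well; qHTS titration format.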
An asterisk follows results filed as active; ? = inconclusive; / = no result; [ ] = dose if it differs, or a comment. Most compounds without a hit are left out; they make up all but 16% or so of the library. Unless noted, the call rests on the fitted dose curve; in most records, active means well fitted curve in the direction sought with a large enough effect; inconclusive means small, poorly fitted or top-dose-only effect, or another doubt; inactive means no such curve, though single readings can be large; an effect the other way counts as inactive or inconclusive.

[1] COC(=O)c1ccc(OCC2c3cc(OC)c(OC)cc3CCN2C(=O)c2ccco2)cc1 (configuration not stated)
[2] COc1cc2c(cc1OC)C(c1ccccc1)N(C(=O)c1ccco1)CC2 (configuration not stated)
[3] COC(=O)c1ccc(OCC(O)CN2CCc3cc(OC)c(OC)cc3C2c2ccccc2)cc1 (configuration not stated)
[4] COC(=O)c1ccc(OCC2NCCc3cc(OC)c(OC)cc32)cc1 (configuration not stated)
[5] COc1cc2c(cc1OC)C(c1ccccc1)N(C(=O)c1ccccc1)CC2 (configuration not stated)
[6] CC(=O)c1c(C)[nH]c(C(=O)Nc2ccc(C)c(S(=O)(=O)Nc3ccc(C)cc3C)c2)c1C

Compound	1	2	3	4	5	6
TDP1 cell CPT	23µM*	21µM*	5.8µM*	?	?	?
uPA generation	/	8%	4%	6%	-20%	8%
miR-21 reporter	6%	-8%	24%	-6%	3%	24%
TDP1 cell noCPT	21µM*	21µM*	5.8µM*	?	?	?
TDP1 inh	4%	-8%	0%	-4%	/	6%

Of the compounds above, these have a furan ring, fused or not:
[1] COC(=O)c1ccc(OCC2c3cc(OC)c(OC)cc3CCN2C(=O)c2ccco2)cc1 (configuration not stated)
[2] COc1cc2c(cc1OC)C(c1ccccc1)N(C(=O)c1ccco1)CC2 (configuration not stated)

Compound	1	2
TDP1 cell CPT	23µM*	21µM*
uPA generation	/	8%
miR-21 reporter	6%	-8%
TDP1 cell noCPT	21µM*	21µM*
TDP1 inh	4%	-8%

(cont.)
[7] Cc1cc(NC(=O)COc2coc(CN3CCN(c4ccccc4)CC3)cc2=O)no1
[8] Cc1[nH]c(C)c(S(=O)(=O)NCCc2ccc(S(N)(=O)=O)cc2)c1C(=O)N1CCCC1
[9] O=C(O)CCSC(=S)N1CCOCC1
[10] COC(=O)c1ccc(OCC2c3cc(OC)c(OC)cc3CCN2C(=O)c2ccc(OC)cc2)cc1 (configuration not stated)
[11] COc1ccc(OCC2c3cc(OC)c(OC)cc3CCN2C(=O)C(C)C)cc1 (configuration not stated)
[12] COC(=O)c1ccc(OCC2c3cc(OC)c(OC)cc3CCN2C(=O)Cc2ccc(OC)cc2)cc1 (configuration not stated)

Compound	7	8	9	10	11	12
TDP1 cell CPT	0%	?	-13%	?	?	?
uPA generation	0%	2%	-2%	/	-1%	/
miR-21 reporter	/	1%	1%	0%	-13%	5%
TDP1 cell noCPT	-14%	?	11%	?	23µM*	21µM*
TDP1 inh	-7%	2%	/	10%	2%	13%

[13] COc1cc2c(cc1OC)[C@@H](c1ccccc1)CN(C)CC2
[14] COC(=O)c1ccc(OCC2c3cc(OC)c(OC)cc3CCN2C(=O)Cc2ccc(OC)c(OC)c2)cc1 (configuration not stated)
[15] Cc1ccc(C)c(NC(=O)CSc2nc(=O)n(CCN(C)C)c3c2CCC3)c1
[16] O=C(c1cccc(F)c1)N1CCN(S(=O)(=O)Cc2ccccc2)CC1
[17] Nc1ccc(O)c2c1C(=O)c1ccccc1C2=O
[18] NC1=CC(=O)C(=O)c2ccccc21

Compound	13	14	15	16	17	18
TDP1 cell CPT	-21%	23µM*	-16%	-4%	?	23µM*
uPA generation	/	/	/	-9%	?	-6%
miR-21 reporter	/	-2%	-4%	0%	-12%	/
TDP1 cell noCPT	15µM*	?	-1%	13%	?	16µM*
TDP1 inh	/	10%	3%	2%	/	/

[19] Cc1cccc(C)c1NC(=O)Cn1c(=O)n(Cc2ccccc2Cl)c(=O)c2cccnc21
[20] CCCC1OC2C[C@@H]3[C@H]4CCC5=CC(=O)C=C[C@]5(C)[C@H]4C(O)C[C@]3(C)[C@]2(C(=O)CO)O1 (some centres not stated)
[21] CCCC1OC2CC3C4CCC5=CC(=O)C=CC5(C)C4C(O)CC3(C)[C@]2(C(=O)CO)O1 (some centres not stated)
[22] C[C@H]1CN([C@@H](C)CO)S(=O)(=O)c2ccc(-c3cncnc3)cc2O[C@H]1CN(C)C(=O)NC1CCCC1
[23] COc1ccc(-c2ccc3c(c2)O[C@H](CN(C)C(=O)Nc2ccccc2F)[C@@H](C)CN([C@H](C)CO)S3(=O)=O)cc1
[24] C[C@H]1CN([C@@H](C)CO)S(=O)(=O)c2ccc(Br)cc2O[C@H]1CN(C)C(=O)Nc1ccccc1F

Compound	19	20	21	22	23	24
TDP1 cell CPT	?	11µM*	16µM*	1%	23µM*	-7%
uPA generation	/	/	/	/	/	/
miR-21 reporter	2%	/	/	/	/	/
TDP1 cell noCPT	?	?	?	-7%	16µM*	-6%
TDP1 inh	-3%	2%	5%	/	/	/

Screen by screen, as entered above.
TDP1 cell noCPT, nos. 21–24 → ?, -7%, 16µM*, -6%
TDP1 cell CPT, nos. 21–24 → 16µM*, 1%, 23µM*, -7%

Remaining list, next part:
[25] C[C@@H]1CN([C@H](C)CO)S(=O)(=O)c2ccc(-c3ccc(C#N)cc3)cc2O[C@H]1CN(C)C(=O)Nc1cc(F)ccc1F
[26] Nn1cnnc1SC1CCCCC1NS(=O)(=O)c1ccccc1 (configuration not stated)
[27] COC(=O)c1ccc(Oc2nc(Nc3ccc(C)c(C)c3)nc(N(C)C)n2)cc1
[28] CCNc1nc(Oc2ccc(C(=O)OC)cc2)nc(N(C)C)n1
[29] O=S(=O)(c1ccc2nc(Nc3cccc(F)c3)ccc2c1)N1CCCC1
[30] COc1ccc(Cl)cc1Nc1ccc2cc(S(=O)(=O)N3CCCCC3)ccc2n1

Compound	25	26	27	28	29	30
TDP1 cell CPT	6.5µM*	31%	11µM*	?	23µM*	?
uPA generation	/	-3%	/	0%	/	/
miR-21 reporter	/	3%	12%	-5%	1%	19%
TDP1 cell noCPT	2.3µM*	-16%	18µM*	?	?	?
TDP1 inh	/	-4%	3%	2%	5%	-3%

[31] COc1ccccc1N1CCN(c2ccc3cc(S(=O)(=O)N4CCCCC4)ccc3n2)CC1
[32] O=S(=O)(c1ccc2nc(Nc3ccc(F)cc3)ccc2c1)N1CCCC1
[33] COc1ccc(Nc2ccc3cc(S(=O)(=O)N4CCCC4)ccc3n2)cc1Cl
[34] CCOC(=O)c1cccc(Nc2ccc3cc(S(=O)(=O)N4CCCCC4)ccc3n2)c1
[35] O=S(=O)(c1ccc2nc(N3CCN(c4ccccc4)CC3)ccc2c1)N1CCCCC1
[36] COc1ccc(OCc2ccc(C(=O)NN)cc2)cc1

Compound	31	32	33	34	35	36
TDP1 cell CPT	13µM*	7%	21µM*	23µM*	-1%	-12%
uPA generation	7%	/	/	/	50%	/
miR-21 reporter	-1%	0%	8%	23%	-1%	-18%
TDP1 cell noCPT	7.3µM*	-26%	21µM*	21µM*	-22%	-10%
TDP1 inh	4%	5%	3%	-8%	1%	4%

[37] Cc1cc(C)nc(N(C#N)Cc2cccc([N+](=O)[O-])c2)n1
[38] O=C(COC(=O)/C=C/c1ccco1)NCc1ccc(Cl)cc1
[39] O=C(Nc1ccc(NC(=O)c2cccs2)cc1)c1cccc(Br)c1
[40] CC1(C)CC(=O)C=C(c2cccc(Cl)c2O)C1
[41] CCS(=O)(=O)N1CCN(S(=O)(=O)c2ccc3ccccc3c2)CC1
[42] CCN(c1ccccc1)c1ccc2cc(S(=O)(=O)N3CCCC3)ccc2n1
[43] COc1ccccc1-c1cc(C(=O)N2CCN(c3ccccc3)CC2)no1
[44] Cc1cccc(N2CCN(C(=O)c3c(C)oc4ncnc(N5CCCCC5)c34)CC2)c1C

Compound	37	38	39	40	41	42	43	44
TDP1 cell CPT	-1%	-19%	?	-21%	?	26µM*	?	16µM*
uPA generation	9%	-3%	/	-10%	1%	/	-5%	/
miR-21 reporter	-13%	/	-42%	/	1%	3%	-11%	24%
TDP1 cell noCPT	-6%	18%	?	-5%	?	21µM*	-13%	8.2µM*
TDP1 inh	3%	-12%	0%[12.3 µM]	0%	/	-5%	1%	5%

Screening results deposited in PubChem BioAssay by National Center for Advancing Translational Sciences (NCATS).
